Data from US11331295B2, “High-dose statins for age-related macular degeneration” (MASSACHUSETTS EYE AND EAR INFIRMARY, priority 2015, dated 2022).

Tested on: ARPE-19 cells
Assay: Fluorescence recovery after photobleaching (FRAP) to assess cell membrane fluidity
Conditions: 50 μM atorvastatin, 3 hours; BODIPY FL C12

Compound: CC(C)c1c(C(=O)Nc2ccccc2)c(-c2ccccc2)c(-c2ccc(F)cc2)n1CC[C@@H](O)C[C@@H](O)CC(=O)O [atorvastatin]
- recovery of fluorescence in the membrane after photo-bleaching: increased
